Legend:
Type in all cases: functional
Salmonella typhimurium = assay: Antibacterial activity against Salmonella typhimurium by CLSI protocol based method; settings: Salmonella enterica subsp. enterica serovar Typhimurium
Pseudomonas aeruginosa = assay: Antibacterial activity against Pseudomonas aeruginosa by CLSI protocol based method
In short: (§1)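 Strains came from the Microbiological Resources Center, Bangkok, Thailand. Antibacterial testing followed Clinical and Laboratory Standards Institute recommendations.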

Shigella flexneri = assay: Antibacterial activity against Shigella flexneri by CLSI protocol based method; in short: as §1

Measured: MIC

GENTAMICIN
0.5 mg/L: all assays above

From ChEMBL document CHEMBL4340580, “Antibacterial and Inhibitory Activities against Nitric Oxide Production of Coumaronochromones and Prenylated Isoflavones from Millettia extensa” (J Nat Prod, 2019)
